Bioassay records (PubChem BioAssay)
Only some compounds are listed: those with a hit (about 1.3% of all), similar ones and a draw of the others.
Rango release inh: prevents RanGTP from dissociating the Rango-importin beta complex; hit rate 0.071% among 340,000; AID 540253; Biochemical FRET Rango-importin beta, RanGTP-induced dissociation; O95149+P62826; Potency, µM (titrated, usually from 46.1 µM), for inactives: at the top dose activity change, negative = inhibition; also: potency is read from the fitted curve at half-maximal effect; % of control where 0% means no effect; nearly all actives have a fitted effect of over 45% in size
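Rango/importin beta premix (0.1/0.25 uM final), PBS + 1 mM DTT + 0.02% Tween-20 + 0.1% BSA; cpd 5 min RT; FRET pre-read; + RanGTP-RCC1 (0.6 uM Ran, 2 mM GTP, 0.2 uM RCC1); 45 min RT; FRET post-read, ex 430, em 486/530 nm.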
KCNH2 3.1 block: inhibitors of human KCNH2 3.1 potassium channel isoform | U2OS KCNH2 3.1, thallium flux FluxOr; hits give low values | activity change, % (tested at about 1.8 µM) | hit rate 0.95% among 340,000 | AID 720553;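 active = maximum activity change below -70%; inconclusive = maximum activity change from -70% to -50%; inactive = maximum activity change above -50%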;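 also: thallium influx rate constant from kinetic fluorescence after stimulation buffer; % is scaled to controls: 0 for no effect and ±100 for the full control effect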
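FluxOr-based Tl+ influx in U2OS cells transduced with KCNH2 3.1 virus; rate constants normalized to DMSO controls.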
hERG WT inh: inhibitors of human wildtype KCNH2 potassium channel; hit rate 0.37% among 340,000; U2OS, BacMam KCNH2, thallium flux FluxOr; hits give low values; AID 720551; activity change, % at 1.84 µM;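 active = maximum activity change below -70%; inconclusive = maximum activity change between -70% and -50%; inactive = maximum activity change above -50%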; also: % is scaled to controls: 0 for no effect and ±100 for the full control effect
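U2OS cells transduced with wild-type KCNH2 virus are loaded with FluxOr dye for 45 min, and thallium flux is measured in kinetic reads before and after stimulation buffer. Rate constants are normalized to DMSO controls.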
Rango complex inh: inhibitors of Rango-importin beta complex formation | Q14974 | Rango CFP/YFP FRET sensor + importin beta, 45 min | Potency, µM (top dose mostly 92.2 µM), without a hit: at the top dose inhibition of complex formation | hit rate 0.031% among 340,000 | AID 540263;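 also: potency is read from the fitted curve at half-maximal effect; 0% = DMSO wells and 100% = buffer wells lacking importin beta; nearly all actives have a fitted effect of over 15% in size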
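FRET biosensor (snurportin 1 IBB flanked by EYFP and cerulean), 50 nM, with compound 5 min, then 0.125 microM importin beta in PBS, 1 mM DTT, 0.02% Tween-20, 0.1% BSA. CFP/YFP ratio read after 45 min at room temperature; pre-read flags interference.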
Numbers without * were called inactive; ? = inconclusive; · = no result given. Unless noted, calls follow the shape of the full dose curve.

Results follow in this order: KCNH2 3.1 block	Rango release inh	Rango complex inh	hERG WT inh
COCCN1Cc2cccc(C(=O)Nc3cccc(-c4nc5ccccc5[nH]4)c3)c2C1=O
  -72.9*	-20.2%	0.3%	25.6
CNc1sc(C(=O)c2cccs2)c(N)c1-c1nc2ccccc2s1
  1.5	10.3µM*	?	-1.9
COc1ccccc1N(CC(=O)NC1CCCCC1)C(=O)CNC(=O)c1cccs1
  16.8	16.3%	-0.7%	-9.0
CCOC(=O)c1c(C)nsc1NC(=O)C1CCCCC1
  17.5	-16.5%	-1.4%	-4.3
Cc1ccccc1OCCn1cc(/C=C(\C#N)C(=O)NCc2ccco2)c2ccccc21
  -77.2*	?	7.4%	-14.6
Cc1ccc(C)c(OCCn2cc(/C=C(\C#N)C(=O)NCc3cccs3)c3ccccc32)c1
  -26.7	-10.4%	?	-2.1
N#C/C(=C\c1cn(CCOc2ccccc2F)c2ccccc12)C(=O)NCc1cccs1
  -3.7	5.8µM*	?	2.9
N#C/C(=C\c1cn(Cc2ccc(C#N)cc2)c2ccccc12)C(=O)NCc1cccs1
  -85.8*	?	?	-26.3
N#C/C(=C/c1cn(CC(=O)O)c2ccccc12)C(=O)NCc1ccccc1
  -5.0	?	?	1.2
CCOc1ccc(C(C)C)cc1S(=O)(=O)N1CCN(C(=O)c2ccco2)CC1
  1.8	2.8%	-1.1%	7.3
CCOC(=O)[C@H]1[C@H]2COc3ccc(Cl)cc3[C@@H]2N2C(=O)c3ccc(Cl)cc3NC(=O)[C@@]12C
  ?	-14.9%	1.7%	1.1
N#Cc1c(C(F)(F)F)cc(-c2ccco2)nc1SCc1ccccn1
  -11.3	-12.8%	36.6µM*	-7.3
N#Cc1c(C(F)(F)F)cc(-c2ccco2)nc1SCc1ccncc1
  3.5	?	?	-4.2
Cc1occc1C(=O)N(C)CC1CCCN(CCc2ccc(Cl)cc2)C1 (centres undefined)
  -72.0*	·	·	10.5
COCc1ccc(C(=O)N(C)CC2CCCN(CCc3ccc(Cl)cc3)C2)o1 (centres undefined)
  -73.7*	1.3%	4.0%	-1.6
COCc1ccc(C(=O)N(C)CC2CCCN(CCc3ccc(OC)cc3)C2)o1 (centres undefined)
  -21.3	-1.2%	-0.9%	36.2
COc1ccc(CCN2CCCC(CN(C)C(=O)c3ccoc3C)C2)cc1 (centres undefined)
  ·	-16.1%	3.8%	14.7
CN(CCCC(=O)NCc1ccc2c(c1)OCO2)S(=O)(=O)c1ccc([N+](=O)[O-])cc1
  -8.5	51.0%	5.2%	52.9
CC1C(=O)N(Cc2ccc([N+](=O)[O-])cc2)c2ccccc2N1C(=O)c1c(F)cccc1F (centres undefined)
  -1.5	20.8%	1.3%	-79.4*
O=C(NCCCN1CCOCC1)c1onc(CSc2ccccc2)c1C(=O)NCCCN1CCOCC1
  10.3	-14.1%	0.7%	9.8
COc1cccc(SCc2noc(C(=O)NCCCN3CCOCC3)c2C(=O)NCCCN2CCOCC2)c1
  -97.5*	-7.5%	1.0%	-0.2
COc1ccc(N2CCN(C(=O)CCc3nnc4ccc(N5CCOCC5)nn34)CC2)cc1
  33.2	-1.0%	4.0%	-0.1
CCC1(c2ccc(F)cc2)NC(=O)N(CC(=O)Nc2ccccc2C)C1=O (centres undefined)
  -43.2	-3.7%	4.6%	3.3
CCN(Cc1ccccc1)C(=O)CN1C(=O)NC(CC)(c2ccc(F)cc2)C1=O (centres undefined)
  -2.9	-1.1%	?	-83.0*
C=CCN(C(=O)CSc1nc2ccsc2c(=O)n1Cc1ccc(C(=O)O)cc1)c1ccccc1
  11.1	·	·	-254.4*
O=C1c2ccccc2-c2onc3c(N4CCN(CCO)CC4)cc(N4CCN(C(=O)c5ccco5)CC4)c1c23
  -4.4	12.7%	36.6µM*	9.3
OCC1(CCc2ccccc2)CCN(Cc2cc(F)ccc2-n2cccn2)CC1
  -99.4*	0.5%	-1.7%	-28.1
OCC1(CCc2ccccc2)CCN(Cc2ccccc2Cl)CC1
  -79.8*	0.9%	-0.3%	29.9
OCC1(CCc2ccccc2)CCN(Cc2c(F)ccc(F)c2F)CC1
  -1.6	14.7%	1.4%	·
Clc1ccccc1CN1CCN(CCCc2ccccc2)CC1
  -78.0*	13.3%	-0.6%	16.5

Next part; the last 3 above are carried over.
Results follow in this order: KCNH2 3.1 block	Rango release inh	Rango complex inh	hERG WT inh
OCC1(CCc2ccccc2)CCN(Cc2ccccc2Cl)CC1
  -79.8*	0.9%	-0.3%	29.9
OCC1(CCc2ccccc2)CCN(Cc2c(F)ccc(F)c2F)CC1
  -1.6	14.7%	1.4%	·
Clc1ccccc1CN1CCN(CCCc2ccccc2)CC1
  -78.0*	13.3%	-0.6%	16.5
CS(=O)(=O)N1CCN(c2ccccc2NC(=O)Nc2cccc(Cl)c2)CC1
  7.4	2.0%	-0.1%	-9.6
N#CC(CCc1ccc([N+](=O)[O-])cc1)(CCc1ccc([N+](=O)[O-])cc1)C(N)=O
  -129.1*	?	?	-92.9*
Cn1c(SCC(=O)Nc2cccc(F)c2)nnc1-c1cccnc1
  4.0	0.9%	0.2%	1.9
O=C(CSc1nnc(-c2cccnc2)n1CCN1CCCCC1)Nc1cccc(Cl)c1
  -87.2*	1.4%	-2.9%	7.6
O=C(CSc1nc2ccccc2c(=O)n1Cc1ccc(Cl)cc1)NCc1cccs1
  -82.0*	-2.9%	-0.3%	-5.6
Cc1ccc(Cn2c(SCC(=O)Nc3cc(C)on3)nc3ccccc3c2=O)cc1
  -96.7*	24.7%	0.9%	-2.4
COc1ccc(C(=O)N2CCN(CCc3ccccn3)CC2)cc1
  -99.0*	4.9%	-0.9%	-1.0
COc1ccc(C(=O)Nc2ccc(N3CCN(Cc4ccccc4)CC3)cc2)cc1
  -85.0*	0.8%	-0.1%	12.0
COc1ccc(NC(=O)C(=O)NCCN2CCN(C(=O)c3ccc(C(C)(C)C)cc3)CC2)cc1
  -12.0	-21.9%	3.8%	4.3
CCc1ccc(N2CCN(CCNC(=O)Nc3ccc(OC)cc3)CC2)cc1
  -94.3*	-9.6%	2.5%	-25.9
COc1ccc(C(=O)N2CCN(CCNC(=O)C(=O)Nc3ccc(Br)cc3)CC2)cc1
  -104.5*	-6.1%	-0.3%	20.2
Cc1c(NS(=O)(=O)c2cc(C(=O)OCC(=O)c3ccccc3F)ccc2Cl)c(=O)n(-c2ccccc2)n1C
  -23.6	·	·	15.3
Cc1ccc(CS(=O)Cc2ccc(C(=O)NCc3ccc(OC(C)C)cc3)o2)cc1 (centres undefined)
  7.9	-3.7%	?	0.4
Nc1nc(NCCc2ccccc2)nc(NCCO)c1[N+](=O)[O-]
  7.6	2.8%	-1.4%	4.1
CCC(C)(C)NC(=O)Cn1c(=O)oc2cc(S(=O)(=O)N3CC(C)CC(C)C3)ccc21 (centres undefined)
  -30.9	4.7%	-5.5%	3.1
CC1CC(C)CN(S(=O)(=O)c2ccc3c(c2)oc(=O)n3CC(=O)NCc2cccnc2)C1 (centres undefined)
  -1.9	-4.7%	0.2%	-157.0*
O=S(CC(O)(c1ccccc1)c1ccccc1)CC(O)(c1ccccc1)c1ccccc1
  2.7	·	·	5.6
CCC(C)(C)NC(=O)Nc1cc(Cl)ccc1OC
  -80.9*	14.0%	-1.9%	1.3
CN1CCC(N(C)C(=O)c2ccc(Cl)c(S(=O)(=O)N3CCOCC3)c2)CC1
  -149.5*	12.4%	0.0%	-194.2*
CN1CCC(N(C)C(=O)c2cc(S(=O)(=O)N3CCOCC3)ccc2Cl)CC1
  12.8	0.7%	-4.7%	-1.3
C=CCCCCCCCCc1nc(SCC(=O)O)n[nH]1
  -8.1	0.3%	-2.1%	2.5

Record cards (already shown). Screens in order: KCNH2 3.1 block, Rango release inh, Rango complex inh, hERG WT inh
Cn1c(SCC(=O)Nc2cccc(F)c2)nnc1-c1cccnc1 is entered as 4.0, 0.9%, 0.2%, 1.9
COc1ccc(C(=O)Nc2ccc(N3CCN(Cc4ccccc4)CC3)cc2)cc1 is entered as -85.0*, 0.8%, -0.1%, 12.0

Look-ups from the entries so far.
Under KCNH2 3.1 block, `COc1ccc(C(=O)N2CCN(CCc3ccccn3)CC2)cc1` reads -99.0*
Under KCNH2 3.1 block, `Cc1c(NS(=O)(=O)c2cc(C(=O)OCC(=O)c3ccccc3F)ccc2Cl)c(=O)n(-c2ccccc2)n1C` reads -23.6
